Source: patent US20220062380A1 (priority 2018, published 2022)

System: Swiss Webster mice
Assay: Saelens precipitated withdrawal test, TCAP-1 in fentanyl treated mice (Example 4)
Settings: fentanyl 1 mg/kg/day infusion; TCAP-1 250 nmol/kg (and additional 500 nmol/kg day 3) vs. control; naloxone 2.5 mg/kg i.p.

Teneurin C-Terminal Associated Peptide-1
number of jumps/t 5-20 minutes: lower number of jumps/t 5-20 minutes in a dose dependent manner than control
